US10604541B2, “Glucokinase activators and methods of using same” (BRISTOL-MYERS SQUIBB COMPANY, priority 2016, dated 2020)

The chains behind the UniProt entries cited, without tags or fusion partners. Residues count along the entry.
UniProt P35557, 1-466 isoform 2: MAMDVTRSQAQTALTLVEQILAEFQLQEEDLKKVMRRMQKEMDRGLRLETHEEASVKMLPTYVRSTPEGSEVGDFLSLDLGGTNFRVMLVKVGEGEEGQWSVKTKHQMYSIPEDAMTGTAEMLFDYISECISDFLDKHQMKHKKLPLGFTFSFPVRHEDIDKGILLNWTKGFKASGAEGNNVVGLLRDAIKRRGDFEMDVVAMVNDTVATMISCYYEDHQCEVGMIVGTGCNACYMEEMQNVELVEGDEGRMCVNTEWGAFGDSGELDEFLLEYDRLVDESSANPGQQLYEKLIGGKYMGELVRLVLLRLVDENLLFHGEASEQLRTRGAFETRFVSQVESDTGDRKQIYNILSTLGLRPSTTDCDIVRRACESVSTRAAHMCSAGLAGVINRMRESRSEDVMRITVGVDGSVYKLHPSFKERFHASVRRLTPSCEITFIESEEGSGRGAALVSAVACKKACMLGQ
UniProt P52792, whole entry: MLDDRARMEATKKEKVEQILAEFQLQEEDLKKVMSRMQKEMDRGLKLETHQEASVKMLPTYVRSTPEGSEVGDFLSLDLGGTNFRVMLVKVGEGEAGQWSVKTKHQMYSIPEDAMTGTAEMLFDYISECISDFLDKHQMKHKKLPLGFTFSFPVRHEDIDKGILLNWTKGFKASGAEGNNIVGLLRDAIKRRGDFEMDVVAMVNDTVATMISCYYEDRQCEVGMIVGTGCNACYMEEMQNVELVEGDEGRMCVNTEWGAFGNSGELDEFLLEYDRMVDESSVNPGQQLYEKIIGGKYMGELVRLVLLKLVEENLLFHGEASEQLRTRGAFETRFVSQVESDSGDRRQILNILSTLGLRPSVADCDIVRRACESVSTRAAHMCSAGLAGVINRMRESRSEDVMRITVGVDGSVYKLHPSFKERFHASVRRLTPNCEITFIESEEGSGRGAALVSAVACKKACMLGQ
UniProt P05177, whole entry: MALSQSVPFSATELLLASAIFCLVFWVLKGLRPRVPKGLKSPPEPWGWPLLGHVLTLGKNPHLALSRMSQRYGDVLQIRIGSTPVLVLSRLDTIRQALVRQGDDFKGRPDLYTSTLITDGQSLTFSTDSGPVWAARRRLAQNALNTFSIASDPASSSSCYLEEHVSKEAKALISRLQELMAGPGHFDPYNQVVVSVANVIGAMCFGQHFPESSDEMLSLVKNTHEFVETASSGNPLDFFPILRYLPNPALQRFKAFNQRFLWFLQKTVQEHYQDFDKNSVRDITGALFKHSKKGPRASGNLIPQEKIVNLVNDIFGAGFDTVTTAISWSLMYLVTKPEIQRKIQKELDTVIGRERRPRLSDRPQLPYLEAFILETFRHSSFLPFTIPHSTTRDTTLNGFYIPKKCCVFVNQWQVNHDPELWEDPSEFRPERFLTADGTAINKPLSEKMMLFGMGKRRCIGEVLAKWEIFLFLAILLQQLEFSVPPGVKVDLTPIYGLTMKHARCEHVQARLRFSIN
UniProt P11712, whole entry: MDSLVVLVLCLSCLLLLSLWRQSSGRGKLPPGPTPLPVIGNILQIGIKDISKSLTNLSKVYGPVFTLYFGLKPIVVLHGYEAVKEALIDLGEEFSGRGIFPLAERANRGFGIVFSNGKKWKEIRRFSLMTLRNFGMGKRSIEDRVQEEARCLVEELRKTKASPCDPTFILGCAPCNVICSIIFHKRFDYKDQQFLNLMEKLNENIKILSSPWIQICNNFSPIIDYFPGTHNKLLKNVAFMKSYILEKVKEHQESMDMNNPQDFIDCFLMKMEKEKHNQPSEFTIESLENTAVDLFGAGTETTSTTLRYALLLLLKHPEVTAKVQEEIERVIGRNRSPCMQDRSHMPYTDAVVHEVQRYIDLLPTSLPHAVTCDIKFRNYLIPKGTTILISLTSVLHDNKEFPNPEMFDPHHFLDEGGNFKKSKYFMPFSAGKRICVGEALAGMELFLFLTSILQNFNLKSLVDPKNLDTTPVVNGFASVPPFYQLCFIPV
UniProt P33261, whole entry: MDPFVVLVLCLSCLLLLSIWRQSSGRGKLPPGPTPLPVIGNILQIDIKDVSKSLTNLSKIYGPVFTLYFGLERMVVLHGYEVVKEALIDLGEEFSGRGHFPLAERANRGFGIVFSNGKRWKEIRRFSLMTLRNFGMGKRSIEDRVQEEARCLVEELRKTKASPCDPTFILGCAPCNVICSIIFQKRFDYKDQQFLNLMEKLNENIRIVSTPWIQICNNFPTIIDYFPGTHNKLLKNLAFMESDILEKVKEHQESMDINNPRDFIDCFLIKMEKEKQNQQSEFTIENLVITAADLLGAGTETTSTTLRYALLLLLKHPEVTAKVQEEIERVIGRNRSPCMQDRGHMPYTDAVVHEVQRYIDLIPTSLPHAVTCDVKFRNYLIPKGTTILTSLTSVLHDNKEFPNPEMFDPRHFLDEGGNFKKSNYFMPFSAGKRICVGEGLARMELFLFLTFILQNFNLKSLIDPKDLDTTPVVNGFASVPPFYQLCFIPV
UniProt P10635, whole entry: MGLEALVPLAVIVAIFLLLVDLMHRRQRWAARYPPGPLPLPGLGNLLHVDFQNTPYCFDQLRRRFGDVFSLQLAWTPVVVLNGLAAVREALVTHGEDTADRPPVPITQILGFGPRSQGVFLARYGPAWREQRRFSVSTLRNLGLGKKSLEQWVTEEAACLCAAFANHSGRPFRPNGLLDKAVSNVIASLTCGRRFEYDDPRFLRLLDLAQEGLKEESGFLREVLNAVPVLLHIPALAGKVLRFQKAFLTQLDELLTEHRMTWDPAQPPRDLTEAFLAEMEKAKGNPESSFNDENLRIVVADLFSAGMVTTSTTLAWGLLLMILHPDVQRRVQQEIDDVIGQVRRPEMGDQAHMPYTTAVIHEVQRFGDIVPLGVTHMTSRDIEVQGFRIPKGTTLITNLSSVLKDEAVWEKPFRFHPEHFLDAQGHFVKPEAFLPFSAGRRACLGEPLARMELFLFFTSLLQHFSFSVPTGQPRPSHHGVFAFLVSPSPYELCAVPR
UniProt P08684, whole entry: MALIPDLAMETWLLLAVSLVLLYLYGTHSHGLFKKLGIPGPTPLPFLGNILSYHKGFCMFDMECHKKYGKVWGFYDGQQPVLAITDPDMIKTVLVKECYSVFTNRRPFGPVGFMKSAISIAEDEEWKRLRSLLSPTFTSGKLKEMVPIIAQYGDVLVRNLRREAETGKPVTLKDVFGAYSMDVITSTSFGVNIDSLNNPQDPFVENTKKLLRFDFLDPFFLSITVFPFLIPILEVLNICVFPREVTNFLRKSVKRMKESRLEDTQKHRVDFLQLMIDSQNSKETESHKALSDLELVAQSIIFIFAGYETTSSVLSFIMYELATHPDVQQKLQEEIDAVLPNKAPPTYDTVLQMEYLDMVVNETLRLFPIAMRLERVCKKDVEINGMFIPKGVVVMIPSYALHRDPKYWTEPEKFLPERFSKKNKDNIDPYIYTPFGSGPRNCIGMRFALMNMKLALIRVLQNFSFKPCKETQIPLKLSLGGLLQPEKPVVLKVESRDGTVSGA
UniProt P10632, whole entry: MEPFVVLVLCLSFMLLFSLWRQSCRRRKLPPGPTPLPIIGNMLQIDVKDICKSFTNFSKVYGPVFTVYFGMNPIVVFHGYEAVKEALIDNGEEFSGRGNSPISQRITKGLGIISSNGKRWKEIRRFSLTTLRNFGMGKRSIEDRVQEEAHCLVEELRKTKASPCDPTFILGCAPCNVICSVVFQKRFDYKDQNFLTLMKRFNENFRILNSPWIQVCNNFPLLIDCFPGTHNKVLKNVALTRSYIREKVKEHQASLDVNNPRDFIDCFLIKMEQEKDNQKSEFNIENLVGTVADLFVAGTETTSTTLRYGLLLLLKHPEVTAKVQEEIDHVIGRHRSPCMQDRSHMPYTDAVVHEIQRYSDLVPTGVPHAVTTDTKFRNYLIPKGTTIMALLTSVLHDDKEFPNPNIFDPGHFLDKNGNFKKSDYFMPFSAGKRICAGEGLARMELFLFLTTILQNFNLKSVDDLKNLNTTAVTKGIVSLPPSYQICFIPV

What was measured:
Human Glucokinase = Human Glucokinase (Homo sapiens, UniProt P35557); experiment: Glucokinase tandem enzymatic assay (human GK); assay type: biochemical; settings: for IC50: read-out: Human Glucokinase IC50
Mouse Glucokinase = Mouse Glucokinase (Mus musculus, UniProt P52792); experiment: Glucokinase activation, mouse GK; assay type: biochemical; settings: read-out: Mouse Glucokinase EC50
CYP450 1A2 = CYP450 1A2 (Homo sapiens, UniProt P05177); experiment: CYP450 1A2 inhibition; assay type: in vitro ADME; settings: read-out: CYP450 1A2 IC50
CYP450 2C9 = CYP450 2C9 (Homo sapiens, UniProt P11712); experiment: CYP450 2C9 inhibition; assay type: in vitro ADME; settings: read-out: CYP450 2C9 IC50
CYP450 2C19 = CYP450 2C19 (Homo sapiens, UniProt P33261); experiment: CYP450 2C19 inhibition; assay type: in vitro ADME; settings: read-out: CYP450 2C19 IC50
CYP450 2D6 = CYP450 2D6 (Homo sapiens, UniProt P10635); experiment: CYP450 2D6 inhibition; assay type: in vitro ADME; settings: read-out: CYP450 2D6 IC50
CYP450 3A4 = CYP450 3A4 (Homo sapiens, UniProt P08684); experiment: CYP450 3A4 inhibition; assay type: in vitro ADME; settings: read-out: CYP450 3A4 IC50
[1] = Metabolic stability in human liver microsomes; assay type: in vitro ADME
[2] = Metabolic stability, mouse; assay type: in vitro ADME
Aqueous solubility = assay type: physicochemical
[3] = system: male DIO (diet-induced obese) C57BL/6J mice; experiment: Oral glucose tolerance test (OGTT) in DIO mice; settings: AUC 0-120 min
[4] = Pharmacokinetic study in mice (plasma and liver); assay type: in vivo, mouse; settings: C57/B16J mice, 10 mg/kg oral; for Plasma AUC(4 hr): 0-4 hr; for Plasma (0.5 hr): 0.5 hr post dose; for Plasma (1 hr): 1 hr post dose; for Plasma (2 hr): 2 hr post dose; for Plasma (4 hr): 4 hr post dose
CYP450 2C8 = CYP450 2C8 (Homo sapiens, UniProt P10632); experiment: CYP450 2C8 inhibition; assay type: in vitro ADME; settings: read-out: CYP450 2C8 IC50

Structure (SMILES)	IC50 (Human Glucokinase) [µM]	EC50 (Mouse Glucokinase) [µM]	IC50 (CYP450 1A2) [µM]	IC50 (CYP450 2C9) [µM]	IC50 (CYP450 2C19) [µM]	IC50 (CYP450 2D6) [µM]	IC50 (CYP450 3A4) [µM]	Metabolic Stability Human Liver Microsomes (0.5 μM) [1] [%]	Metabolic Stability Mouse (0.5 μM) [2] [%]	Aqueous Solubility (Aqueous solubility) [mg/mL]	Liver/Plasma ratio [4]	Plasma AUC(4 hr) [4] [µM·h]	Plasma (0.5 hr) [4] [nM]	Plasma (1 hr) [4] [nM]	Plasma (2 hr) [4] [nM]	Plasma (4 hr) [4] [nM]	Glucose lowering (AUC) (120 min) ([3]; oral dose 30 μmol/kg) [%]	IC50 (CYP450 2C8) [µM]	Glucose lowering (AUC) (120 min) ([3]; oral dose 10 μmol/kg) [%]	other results
CCO[P@](C)(=O)Cc1csc(NC(=O)c2cc(Oc3ccc(S(C)(=O)=O)cc3)cc(O[C@@H](C)COC)c2)n1 (single isomer, unassigned)	0.079	0.075	> 40	8.5	32.5	> 40	> 40	54	90	0.009	16.9	4.21	435 ± 100	571 ± 18	467 ± 49	485 ± 290	–	–	–	Glucose lowering (AUC) (120 min) ([3]; oral dose 10 mg/kg = 17 μmol/kg): −50%; Liver (1 hr) ([4]; liver concentration 1 hr post dose): 9.68 ± 0.351 µM
CCOP(=O)(Cc1csc(NC(=O)c2cc(O[C@@H](C)CO)cc(O[C@@H](C)Cc3ccccc3)c2)n1)OCC	0.156	0.024	> 40	1	0.6	> 40	> 40	26	64	–	36.8	3.28	1876 ± 302	1542 ± 544	754 ± 210	214 ± 107	−48	–	–	–
CCS(=O)(=O)c1ccc(Oc2cc(O[C@@H](C)CO)cc(C(=O)Nc3ccn(C)n3)c2)cn1	0.134	0.048	> 6.7	> 6.7	> 20	> 6.7	> 6.7	100	100	0.73	1.1	36.53	–	–	7031 ± 1179	1699 ± 28	–	> 6.7	−67	EC50 (Human Glucokinase; read-out: Human Glucokinase EC50): 0.064 µM
O=C(O)c1ccc(NC(=O)[C@H](CC2CCCC2)n2cnc(C(F)(F)F)c2)nc1	–	–	–	–	–	–	–	96	92	–	–	36.91	7285 ± 856	–	–	6712 ± 2591	−43	17.6	−20	–
